For 47 compounds, max activation results are on record in PubChem BioAssay AID652048 (National Center for Advancing Translational Sciences (NCATS), 2013).

Protein sequences, listed by entry. Tags and fused reporters are not part of them.
UniProt P35462, whole entry: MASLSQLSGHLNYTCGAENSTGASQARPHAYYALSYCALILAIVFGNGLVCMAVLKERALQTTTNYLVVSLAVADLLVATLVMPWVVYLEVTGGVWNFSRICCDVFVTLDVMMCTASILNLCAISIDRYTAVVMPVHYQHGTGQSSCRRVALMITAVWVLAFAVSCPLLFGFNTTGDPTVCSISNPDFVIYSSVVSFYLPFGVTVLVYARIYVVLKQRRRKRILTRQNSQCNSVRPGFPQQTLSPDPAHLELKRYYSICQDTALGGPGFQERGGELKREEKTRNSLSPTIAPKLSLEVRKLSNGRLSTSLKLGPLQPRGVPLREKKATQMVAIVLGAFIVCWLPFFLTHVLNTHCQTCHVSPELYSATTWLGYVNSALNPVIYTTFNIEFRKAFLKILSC

The structures appear in SMILES notation. The entries are a selection whose mix differs from that of the whole data set. The source made the active and inactive calls. Cut-off read from the data, not from the text of the source: active = max activation above about 30%; inactive = the rest.

The assay concerns the target D(3) dopamine receptor (Homo sapiens) (UniProt P35462). The assay is described as follows: qHTS of D3 Dopamine Receptor Agonist: qHTS. Note: 0% is about no effect. Conditions: D3R DiscoveRx beta-arrestin cells, luminescence, 90 min; active compounds read high. In short, it runs like this:
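Agonist-mode cell screen: cells plated at 1500/well and incubated overnight at 37 °C, then exposed to library compounds for 90 min at 37 °C. Detection reagent was added for 30–60 min at room temperature, and luminescence was read.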
With `O=c1[nH]c2ccccc2n1C1CCN(C(c2cccs2)c2nnnn2C2CCCCC2)CC1` (configuration not stated), the max activation is inactive: -5.19%.

As to `O=c1[nH]c2ccccc2n1C1CCN(C(c2ccnc3ccccc23)c2nnnn2C2CCCC2)CC1` (configuration not stated), the max activation is inactive: 9.79%.

Consider `COc1ccc(C(=O)NCC2(N3CCOCC3)CCCCC2)cc1OC`, for which the max activation is inactive: -1.7%.

With `CN(C)C1(CNC(=O)c2cccc(C#N)c2)CCCCC1`, the max activation is inactive: -26.1%.

Turning to `O=C(NCC1(N2CCOCC2)CCCCC1)c1ccccc1`, the max activation is inactive: -4.79%.

As for `Cc1cc(N(CCCl)CCCl)ccc1C=O`, the max activation is inactive: 7.46%.

Regarding `CCCN1CCC(Nc2cc(OC)cc(OC)c2)CC1`, the max activation is inactive: -9.59%.

As to `O=c1[nH]c2ccccc2n1C1CCN(C(c2ccccc2)c2nnnn2C2CCCC2)CC1` (configuration not stated), the max activation is inactive: -12.3%.

Turning to `c1ccc(CN2CCC(Nc3ccccc3)CC2)cc1`, the max activation is inactive: 0.747%.

`CC(C)(C)n1nnnc1C(c1cccc2ccccc12)N1CCC(n2c(=O)[nH]c3ccccc32)CC1` (configuration not stated): the max activation is inactive: 3.22%.

For the compound `N#Cc1ccc(C(=O)NCC2(N3CCCCC3)CCCCC2)cc1`, the max activation was inactive: 0.558%.

With `O=C(NCC1(N2CCOCC2)CCCCC1)c1ccccc1[N+](=O)[O-]`, the max activation is inactive: -14.1%.

Turning to `CC(C)(C)OC(=O)N1CCC(N(C(=O)c2ccccc2)c2ccc(Cl)cc2)CC1`, the max activation is inactive: -3.84%.

For `O=C(NCC1(N2CCOCC2)CCCCC1)c1ccc([N+](=O)[O-])cc1`, the max activation is inactive: 3.08%.

Take `CCOC(=O)C(CC)C1=NC(C)(C)Cc2ccccc21.O=[N+]([O-])c1cc([N+](=O)[O-])c(O)c([N+](=O)[O-])c1` (configuration not stated): the max activation is inactive: -4.03%.

In the case of `CCN1CCC(Nc2cccc(F)c2)CC1`, the max activation was inactive: 0.0835%.

`COc1ccc(C(c2nnnn2C2CCCCC2)N2CCC(n3c(=O)[nH]c4ccccc43)CC2)cc1` (configuration not stated): the max activation was inactive: -12.5%.

On to `CC(C)(C)n1nnnc1C(c1ccnc2ccccc12)N1CCC(n2c(=O)[nH]c3ccccc32)CC1` (configuration not stated), for which the max activation is inactive: 0.84%.

In the case of `Cc1ccccc1NC1(C#N)CCN(Cc2ccccc2)CC1`, the max activation is inactive: -5.32%.

In the case of `Cc1ccccc1C(=O)NCC1(N(C)C)CCCCC1`, the max activation was inactive: 18.2%.

Consider `CN(C)c1ccc(C(=O)NCC2(N3CCCCC3)CCCCC2)cc1`, for which the max activation is inactive: -11.6%.

Turning to `Cn1c(=O)[nH]cc(N(CCCl)CCCl)c1=O`, the max activation was inactive: 7.32%.

With `O=C(NCC1(N2CCCCC2)CCCCC1)c1ccco1`, the max activation was inactive: -9.72%.

With `CC(C)(C)c1ccc(C(=O)NCC2(N3CCOCC3)CCCCC2)cc1`, the max activation is inactive: -9.99%.

As for `CCC(c1nnnn1C1CCCCC1)N1CCC(n2c(=O)[nH]c3ccccc32)CC1` (configuration not stated), the max activation was inactive: -4.51%.

On to `CN(C)C1(CNC(=O)c2ccc(C(C)(C)C)cc2)CCCCC1`, for which the max activation was inactive: -23.9%.

Take `COc1cccc(C(c2nnnn2C2CCCCC2)N2CCC(n3c(=O)[nH]c4ccccc43)CC2)c1OC` (configuration not stated): the max activation was inactive: 7.34%.

Regarding `CC(=O)N(c1ccccc1)C1CCNCC1`, the max activation was inactive: 12%.

Turning to `COc1cc(OC)cc(C(=O)NCC2(N3CCCCC3)CCCCC2)c1`, the max activation is inactive: -12.9%.

On to `O=c1[nH]c2ccccc2n1C1CCN(C(c2ccnc3ccccc23)c2nnnn2C2CCCCC2)CC1` (configuration not stated), for which the max activation is inactive: 7.3%.

Regarding `Fc1ccccc1NC1CCN(Cc2ccccc2)CC1`, the max activation is inactive: -27.5%.

Consider `Cc1ccc(Nc2c([N+](=O)[O-])cc([N+](=O)[O-])cc2[N+](=O)[O-])cc1`, for which the max activation was inactive: -5.99%.

As to `Cc1ccc(C(=O)NCC2(N3CCCCC3)CCCCC2)o1`, the max activation is inactive: -10.1%.

Regarding `Cc1ccc(NC2(C#N)CCN(Cc3ccccc3)CC2)cc1`, the max activation was inactive: 2.18%.

Regarding `COc1cc(OC)cc(C(=O)NCC2(N3CCOCC3)CCCCC2)c1`, the max activation was inactive: -10.9%.

As to `COc1cccc(C(c2nnnn2C2CCCC2)N2CCC(n3c(=O)[nH]c4ccccc43)CC2)c1OC` (configuration not stated), the max activation was inactive: 4.69%.

Take `COc1cc(C(=O)NCC2(N3CCOCC3)CCCCC2)cc(OC)c1OC`: the max activation was inactive: -8.33%.

Consider `COc1cccc(C(=O)N(c2cc(C)cc(C)c2)C2CCN(C(=O)OC(C)(C)C)CC2)c1`, for which the max activation was inactive: -10.2%.

On to `CCC(CO)(C(=O)OC1CN2CCC1CC2)c1ccccc1` (configuration not stated), for which the max activation is inactive: -3.31%.

`CN1CCC(Nc2ccc(Cl)cc2)CC1`: the max activation was inactive: 0.418%.

For the compound `CN1CCC(Nc2ccc(F)c(Cl)c2)CC1`, the max activation was inactive: -3.14%.

As to `CCOc1ncccc1C(=O)NCC1(N2CCOCC2)CCCCC1`, the max activation is inactive: -7.46%.

Take `O=C(O)C1(Nc2ccccc2)CCN(Cc2ccccc2)CC1`: the max activation is inactive: -1.27%.

As to `NN(c1ccccc1)C1CCN(CCc2ccccc2)CC1`, the max activation is inactive: -10.6%.

Take `CC(C)(C)OC(=O)N1CCC(Nc2ccccc2)CC1`: the max activation is inactive: -6.7%.

As to `O=c1[nH]c2ccccc2n1C1CCN(C(c2cc3ccccc3o2)c2nnnn2C2CCCC2)CC1` (configuration not stated), the max activation was inactive: 0.53%.

Turning to `CCCOc1ccc(C(=O)NCC2(N(C)C)CCCCC2)cc1`, the max activation is inactive: -1.15%.
